According to US9376684:

Molecular target: hirudin-CD4 (glycine linker length not stated) (Hirudo medicinalis; human) (UniProt P01050)
Assay: flow cytometry, two hirudin-CD4 clones incubated with thrombin up to 82 U/ml

- thrombin concentration at which cells were still not saturated (mean fluorescence intensities): > 82 U/ml
- thrombin concentration at which transfectants were saturated (percentage positive cells): 41 U/ml
Substance: thrombin (from UniProt P00734 328-363; P00734 364-622) (enzyme)
